Test results taken from PubChem BioAssay (Tox21).
Where “and” joins values, the source holds several entries; their conditions need not be identical. Identical values can stand only once. Only a part is listed here, and it is no random draw. Calls of active or inactive are those of the source. Unless noted, calls come from the whole dose curve; as a rule, active = well fitted curve in the direction sought with a large enough effect in the repeat runs; inconclusive = weak or mixed curves; inactive = no such curve, though single readings can be large; an effect the other way counts as inactive or inconclusive.

Chains of the proteins cited; added tags and fusions are not shown. Lines headed by an entry give the natural chain unless they say otherwise; changes in a name come on top.
UniProt P10275: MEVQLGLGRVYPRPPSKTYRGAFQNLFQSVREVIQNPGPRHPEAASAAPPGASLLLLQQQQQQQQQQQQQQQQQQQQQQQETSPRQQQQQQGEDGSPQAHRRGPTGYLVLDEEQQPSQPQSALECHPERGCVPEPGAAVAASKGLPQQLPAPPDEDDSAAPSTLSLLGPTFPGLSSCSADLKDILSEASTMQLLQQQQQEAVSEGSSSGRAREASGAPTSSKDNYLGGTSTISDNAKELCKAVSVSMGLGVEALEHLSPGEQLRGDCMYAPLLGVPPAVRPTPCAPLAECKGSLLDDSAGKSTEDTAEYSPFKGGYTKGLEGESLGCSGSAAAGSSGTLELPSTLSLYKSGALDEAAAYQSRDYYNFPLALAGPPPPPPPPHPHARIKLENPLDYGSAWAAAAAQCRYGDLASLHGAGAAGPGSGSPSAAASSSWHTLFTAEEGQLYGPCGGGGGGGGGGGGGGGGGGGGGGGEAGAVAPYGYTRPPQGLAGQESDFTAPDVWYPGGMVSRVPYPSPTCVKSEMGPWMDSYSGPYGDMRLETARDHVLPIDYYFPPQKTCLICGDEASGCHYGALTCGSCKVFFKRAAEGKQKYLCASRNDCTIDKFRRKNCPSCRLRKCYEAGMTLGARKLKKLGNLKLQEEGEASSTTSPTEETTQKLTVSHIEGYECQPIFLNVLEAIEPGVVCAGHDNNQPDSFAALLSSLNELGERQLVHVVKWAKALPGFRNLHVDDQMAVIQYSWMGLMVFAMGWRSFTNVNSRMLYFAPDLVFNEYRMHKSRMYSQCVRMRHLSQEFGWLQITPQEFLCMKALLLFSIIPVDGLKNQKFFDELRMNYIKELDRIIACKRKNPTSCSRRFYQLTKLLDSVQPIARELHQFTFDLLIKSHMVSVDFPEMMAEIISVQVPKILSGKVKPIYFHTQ
UniProt P03372, whole entry, looked up: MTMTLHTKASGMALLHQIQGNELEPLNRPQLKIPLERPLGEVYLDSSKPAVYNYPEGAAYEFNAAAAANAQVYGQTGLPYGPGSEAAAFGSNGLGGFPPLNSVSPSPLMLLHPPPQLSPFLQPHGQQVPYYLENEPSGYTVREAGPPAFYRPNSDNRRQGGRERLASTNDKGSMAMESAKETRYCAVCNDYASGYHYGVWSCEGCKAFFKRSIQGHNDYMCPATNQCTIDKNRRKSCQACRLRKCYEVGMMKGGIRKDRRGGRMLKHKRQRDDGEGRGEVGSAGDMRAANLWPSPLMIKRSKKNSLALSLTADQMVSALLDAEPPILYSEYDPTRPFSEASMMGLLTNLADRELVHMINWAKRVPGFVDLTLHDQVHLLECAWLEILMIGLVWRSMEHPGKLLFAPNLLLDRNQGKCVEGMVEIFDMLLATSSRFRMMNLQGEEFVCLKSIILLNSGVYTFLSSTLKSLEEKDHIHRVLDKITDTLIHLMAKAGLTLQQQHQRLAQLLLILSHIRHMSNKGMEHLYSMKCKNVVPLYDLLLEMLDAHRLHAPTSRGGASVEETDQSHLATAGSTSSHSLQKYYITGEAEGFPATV
UniProt P11511: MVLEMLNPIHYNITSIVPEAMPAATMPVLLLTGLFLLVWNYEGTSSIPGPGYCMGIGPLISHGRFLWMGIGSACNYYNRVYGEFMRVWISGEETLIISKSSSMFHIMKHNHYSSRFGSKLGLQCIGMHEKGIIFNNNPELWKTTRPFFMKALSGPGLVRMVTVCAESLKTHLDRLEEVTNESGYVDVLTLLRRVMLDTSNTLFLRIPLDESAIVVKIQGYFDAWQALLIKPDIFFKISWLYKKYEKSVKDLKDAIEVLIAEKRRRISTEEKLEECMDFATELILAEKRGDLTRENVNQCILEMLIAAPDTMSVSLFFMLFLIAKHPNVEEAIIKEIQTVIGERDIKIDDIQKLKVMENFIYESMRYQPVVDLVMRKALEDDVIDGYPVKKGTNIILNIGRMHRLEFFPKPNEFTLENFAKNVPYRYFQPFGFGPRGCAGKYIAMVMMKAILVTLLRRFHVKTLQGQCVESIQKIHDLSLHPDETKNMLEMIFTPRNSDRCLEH
UniProt P35869: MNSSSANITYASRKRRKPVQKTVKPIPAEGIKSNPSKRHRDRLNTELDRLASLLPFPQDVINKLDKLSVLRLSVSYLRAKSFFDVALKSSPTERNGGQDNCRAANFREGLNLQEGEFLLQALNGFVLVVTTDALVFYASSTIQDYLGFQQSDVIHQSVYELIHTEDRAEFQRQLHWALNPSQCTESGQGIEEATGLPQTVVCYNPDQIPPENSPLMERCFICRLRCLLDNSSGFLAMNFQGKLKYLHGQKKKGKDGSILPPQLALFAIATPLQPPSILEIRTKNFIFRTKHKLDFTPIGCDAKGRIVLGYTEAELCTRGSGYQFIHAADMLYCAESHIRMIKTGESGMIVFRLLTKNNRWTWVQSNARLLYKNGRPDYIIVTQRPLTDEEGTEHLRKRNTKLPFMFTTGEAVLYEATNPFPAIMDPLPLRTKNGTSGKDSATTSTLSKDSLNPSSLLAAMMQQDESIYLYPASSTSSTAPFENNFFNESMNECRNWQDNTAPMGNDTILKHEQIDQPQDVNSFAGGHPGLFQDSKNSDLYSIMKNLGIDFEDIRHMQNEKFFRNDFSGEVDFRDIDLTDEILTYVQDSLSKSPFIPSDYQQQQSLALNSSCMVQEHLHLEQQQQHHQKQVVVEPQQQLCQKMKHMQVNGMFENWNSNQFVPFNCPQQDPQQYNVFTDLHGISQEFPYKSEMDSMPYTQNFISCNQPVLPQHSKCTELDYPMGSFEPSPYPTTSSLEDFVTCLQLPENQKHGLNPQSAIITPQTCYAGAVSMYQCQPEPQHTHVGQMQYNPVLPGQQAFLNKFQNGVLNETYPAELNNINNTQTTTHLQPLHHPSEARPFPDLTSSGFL
UniProt P37231: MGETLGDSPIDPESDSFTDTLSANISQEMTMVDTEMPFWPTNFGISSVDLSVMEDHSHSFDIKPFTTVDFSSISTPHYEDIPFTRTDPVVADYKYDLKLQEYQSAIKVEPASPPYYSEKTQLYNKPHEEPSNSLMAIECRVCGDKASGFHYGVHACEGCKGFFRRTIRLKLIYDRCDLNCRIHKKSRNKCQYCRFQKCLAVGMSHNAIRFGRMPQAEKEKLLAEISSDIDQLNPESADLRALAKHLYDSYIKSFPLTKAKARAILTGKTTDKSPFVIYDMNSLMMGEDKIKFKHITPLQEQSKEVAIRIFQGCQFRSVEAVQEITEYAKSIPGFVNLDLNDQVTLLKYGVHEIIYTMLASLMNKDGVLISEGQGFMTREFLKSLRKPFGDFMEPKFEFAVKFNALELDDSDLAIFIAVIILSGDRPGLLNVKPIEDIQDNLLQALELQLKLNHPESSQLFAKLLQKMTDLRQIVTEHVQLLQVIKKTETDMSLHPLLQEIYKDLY

Columns and labels:
[1] = molecular target: Androgen receptor (Homo sapiens) (UniProt P10275); test: qHTS assay to identify small molecule antagonists of the androgen receptor (AR) signaling pathway (AID 743035; active = well fitted inhibition curve with a large enough effect in the signal ratio in the repeat runs, not every such curve was filed as active; inconclusive = weak or mixed curves, or effect the other way; inactive = no such curve, though single readings can be large or run the other way; the % refers to the signal ratio; note: potency is the fitted concentration of half-maximal effect)
[2] = molecular target: Androgen receptor (Homo sapiens) (UniProt P10275); test: qHTS assay to identify small molecule agonists of the androgen receptor (AR) signaling pathway (AID 743036; active = well fitted activation curve with a large enough effect in the signal ratio in the repeat runs, with a control signal flat, not every such curve was filed as active; inconclusive = weak or mixed curves, or effect the other way; inactive = no such curve, though single readings can be large or run the other way; the % refers to the signal ratio); settings: HEK293 AR-UAS-bla GripTite, beta-lactamase FRET ratio, 16 h; at 62.4 µM (top of the series)
[3] = molecular target: Androgen receptor (Homo sapiens) (UniProt P10275); test: qHTS assay to identify small molecule agonists of the androgen receptor (AR) signaling pathway using the MDA cell line (AID 743040; note: nearly all actives have a fitted effect of over 20% in size); settings: MDA-kb2 AR-luc cells, MMTV luciferase, 16 h, active compounds read high
[4] = qHTS assay to identify small molecule antagonists of the androgen receptor (AR) signaling pathway using the MDA cell line - cell viability counter screen (AID 743041; note: nearly all actives have a fitted effect of over 45% in size; note: potency is the fitted concentration of half-maximal effect)
Method in brief: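 MDA-kb2 AR-luc cells (MMTV-luciferase, AR/GR responsive) treated with compounds plus R1881 agonist for 16 h at 37C. CellTiter-Fluor added at 15.5 h; fluorescence read after 30 min in the same wells.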

[5] = molecular target: Androgen receptor (Homo sapiens) (UniProt P10275); test: qHTS assay to identify small molecule antagonists of the androgen receptor (AR) signaling pathway using the MDA cell line (AID 743042; note: nearly all actives have a fitted effect of over 55% in size; note: potency is the fitted concentration of half-maximal effect)
[6] = qHTS assay to identify small molecule antagonists of the thyroid receptor (TR) signaling pathway (AID 743065); note: nearly all actives have a fitted effect of over 55% in size; note: potency is the fitted concentration of half-maximal effect
Method in brief: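 GH3.TRE-Luc rat pituitary cells (two TREs driving luciferase) were dosed with compound, then stimulated with 1 nM T3 (final) for 23.5 h at 37 C. ONE-Glo luminescence was the read-out, with CellTiter-Fluor fluorescence as the cytotoxicity counter-screen.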

[7] = tested on: thyroid hormone receptor (rat, GH3 cells); test: qHTS assay to identify small molecule agonists of the thyroid receptor (TR) signaling pathway (AID 743066; calls by dose curve); settings: GH3.TRE-Luc cells, TR agonist luciferase, 24 h; at 83.9 µM (top of the series) unless noted
[8] = molecular target: Estrogen receptor (Homo sapiens) (UniProt P03372); test: qHTS assay to identify small molecule antagonists of the estrogen receptor alpha (ER-alpha) signaling pathway (AID 743069; active = well fitted curve in the direction sought with a large enough effect in the signal ratio in the repeat runs, not every such curve was filed as active; inconclusive = weak or mixed curves, or effect the other way; inactive = no such curve, though single readings can be large or run the other way; the % refers to the signal ratio; note: potency is the fitted concentration of half-maximal effect)
Method in brief: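 HEK293 ER-alpha-UAS-bla GripTite cells, held overnight in 2% charcoal-stripped FBS, 5,000 cells/well, preincubated 4 h, then compound plus 17beta-estradiol for 18 h at 37C. Beta-lactamase read by LiveBLAzer B/G FRET substrate, 2 h at room temperature.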

[9] = qHTS assay to identify small molecule antagonists of the estrogen receptor alpha (ER-alpha) signaling pathway - cell viability counter screen (AID 743074; calls by dose curve;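 note: HEK293 cells carrying ER-alpha-UAS-bla reporter stimulated with 17beta-estradiol; nearly all actives have a fitted effect of over 45% in size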; note: potency is the fitted concentration of half-maximal effect)
[10] = molecular target: Estrogen receptor (Homo sapiens) (UniProt P03372); test: qHTS assay to identify small molecule agonists of the estrogen receptor alpha (ER-alpha) signaling pathway (AID 743075; calls by dose curve; note: potency is the fitted concentration of half-maximal effect)
[11] = molecular target: Estrogen receptor (Homo sapiens) (UniProt P03372); test: qHTS assay to identify small molecule agonists of the estrogen receptor alpha (ER-alpha) signaling pathway using the BG1 cell line (AID 743079); note: nearly all actives have a fitted effect of over 20% in size
[12] = qHTS assay to identify small molecule antagonists of the estrogen receptor alpha (ER-alpha) signaling pathway using the BG1 cell line (AID 743080; calls by dose curve;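 note: BG1 cells stimulated with 17beta-estradiol alongside compound; nearly all actives have a fitted effect of over 25% in size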); settings: BG1Luc4E2 ERE-luciferase antagonist mode, luminescence; at 70.3 µM (top of the series) unless noted
Method in brief: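 Seeding, 24 h rest, compound transfer from DMSO, 17beta-estradiol addition, 21.5 h incubation, CellTiter-Fluor (30 min, 37 C), then ONE-Glo (30 min, room temperature): this sequence was run on BG1-Luc-4E2 reporter cells.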

[13] = qHTS assay to identify small molecule antagonists of the estrogen receptor alpha (ER-alpha) signaling pathway using the BG1 cell line - cell viability counter screen (AID 743081);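 note: compound given together with 17beta-estradiol as the ER stimulus; nearly all actives have a fitted effect of over 45% in size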
Aromatase (Homo sapiens) = Aromatase (Homo sapiens) (UniProt P11511); test: qHTS assay to identify aromatase inhibitors (AID 743083); note: nearly all actives have a fitted effect of over 55% in size; note: potency is the fitted concentration of half-maximal effect
[14] = qHTS assay to identify aromatase inhibitors - cell viability counter screen (AID 743084);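 note: cells stimulated with testosterone during compound exposure; nearly all actives have a fitted effect of over 55% in size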; note: potency is the fitted concentration of half-maximal effect
[15] = molecular target: Aryl hydrocarbon receptor (Homo sapiens) (UniProt P35869); test: qHTS assay to identify small molecule that activate the aryl hydrocarbon receptor (AhR) signaling pathway (AID 743085);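 note: HG2L7.5c1 human HepG2 liver cells with stably integrated DRE-driven firefly reporter; nearly all actives have a fitted effect of over 15% in size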
[16] = molecular target: Peroxisome proliferator-activated receptor gamma (Homo sapiens) (UniProt P37231); test: qHTS assay to identify small molecule antagonists of the peroxisome proliferator-activated receptor gamma (PPARg) signaling pathway (AID 743191; calls by dose curve; note: nearly all actives have a fitted effect of over 30% in size); settings: HEK293H PPARg-UAS-bla, beta-lactamase ratio, antagonist, 17 h; at 62.6 µM (top of the series) unless noted
[17] = qHTS assay to identify small molecule antagonists of the peroxisome proliferator-activated receptor gamma (PPARg) signaling pathway - cell viability counter screen (AID 743194); note: nearly all actives have a fitted effect of over 55% in size; note: potency is the fitted concentration of half-maximal effect
Method in brief: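 Cytotoxicity counter screen in PPARg-bla HEK293H cells, same wells as reporter assay. Compounds plus 50 nM rosiglitazone (final) for 17 h at 37 C, then viability read by CellTiter-Glo luminescence.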

[18] = qHTS assay for small molecule activators of the heat shock response signaling pathway - cell viability counter screen (AID 743209); note: nearly all actives have a fitted effect of over 50% in size; note: potency is the fitted concentration of half-maximal effect
Method in brief: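 Counter screen for cytotoxicity in HeLa HSE-bla reporter cells. Treatment was 5 h at 37 C; viability was detected by luminescent ATP assay (CellTiter-Glo) in the same wells as the beta-lactamase read.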

[19] = qHTS assay for small molecule activators of the heat shock response signaling pathway (AID 743210; active = well fitted activation curve with a large enough effect in the signal ratio in the repeat runs, with a control signal flat, not every such curve was filed as active; inconclusive = weak or mixed curves; the % refers to the signal ratio); settings: HeLa HSE-bla reporter, beta-lactamase ratio, 5 h; at 62.6 µM (top of the series) unless noted
Method in brief: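 HSE-bla HeLa cells (beta-lactamase reporter under heat shock response elements), plated overnight, then exposed to compounds 5 h at 37 C; LiveBLAzer B/G FRET substrate added, 2.5 h at room temperature, fluorescence intensity read.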
% is set by controls: 0 for no effect and ±100 for the full control effect.

O=C(OC1CN2CCC1CC2)c1ccccc1 (stereo not given)
inactive: Potency [1] | activation [2] 0.0004% | activity change ([3]; at 70.3 µM (top of the series)) 0.173% | Potency [4] | Potency [5] | Potency [6] | activation [7] -0.0622% | Potency [8] | Potency [9] | Potency [10] | Potency [11] | activity change, negative = inhibition [12] 5.5% | Potency [13] | Potency (Aromatase (Homo sapiens)) | Potency [14] | Potency [15]

CCNC(C)Cc1ccc2c(c1)OCO2 (stereo not given)
inactive: Potency [4] | activation [7] -1.95% [at 95.2 µM] | Potency [8] | Potency [9] | Potency [10] | Potency [11] | activity change, negative = inhibition [12] 2.01% [at 95 µM] | Potency [14] | Potency [15] | ratio activity, negative = inhibition [16] 3.39% [at 81.1 µM] | Potency [17] | Potency [18]

Cc1cc([N+](=O)[O-])c(O)c([N+](=O)[O-])c1
inactive: activity change ([3]; at 95 µM (top of the series)) -3.08% | Potency [5] | activation [7] -0.526% [at 95.2 µM] | Potency [8] | Potency [10] | Potency (Aromatase (Homo sapiens)) | Potency [15] | ratio activity, negative = inhibition [16] -19% [at 81.1 µM] | Potency [17] | Potency [18] | activation [19] -0.769% [at 81.1 µM]

O=[As]c1ccccc1 (stereo not given)
inactive: activity change ([3]; at 70.3 µM (top of the series)) -11.1% | Potency [15]
active: Potency [1] 347 nM | Potency [4] 1720 nM | Potency [5] 306 nM | Potency [6] 109 nM | Potency [8] 3090 nM [inconclusive] | Potency [9] 4900 nM | Potency [10] 4360 nM [inconclusive] | Potency (Aromatase (Homo sapiens)) 306 nM | Potency [14] 433 nM | Potency [17] 490 nM | Potency [18] 776 nM

COC(=O)Cl
inactive: Potency [6] | activation [7] 0.0509% | Potency [8] | Potency [9] | Potency [10] | Potency [11] | activity change, negative = inhibition [12] 4.86% | Potency [13] | Potency (Aromatase (Homo sapiens)) | Potency [14] | Potency [15] | Potency [17] | Potency [18] | activation [19] 2.93%

O=C1C2CC=CCC2C(=O)N1SC(Cl)(Cl)C(Cl)Cl (stereo not given)
inactive: activity change ([3]; at 70.3 µM (top of the series)) -12% | activity change ([3]; at 95 µM (top of the series)) -11.5% | Potency [15]
active: Potency [6] 1.55 µM and 154 nM

CCCCO[P+](=O)OCCCC
inactive: Potency [1] | activation [2] 4.2% and -0.0786% | activity change ([3]; at 70.3 µM (top of the series)) -1.27% and -1.2% | Potency [4] | Potency [5] | Potency [6] | activation [7] 0.352% and 0.0117% | Potency [8] | Potency [9] | Potency [10] | Potency [11] | activity change, negative = inhibition [12] -1.39% and 3.76% | Potency [13] | Potency (Aromatase (Homo sapiens)) | Potency [14] | Potency [15] | ratio activity, negative = inhibition [16] -5.8% and 0.169% | Potency [17] | Potency [18] | activation [19] 0.617% and 0.112%
